Earlier results, collected in patent US8338628B2, “Method of synthesizing alkylated bile acid derivatives” (City of Hope, priority 2007, dated 2012).

Target: T1, farnesoid X receptor (FXR) (Homo sapiens, UniProt Q96RI1)
T1 sequence (Q96RI1 1-486): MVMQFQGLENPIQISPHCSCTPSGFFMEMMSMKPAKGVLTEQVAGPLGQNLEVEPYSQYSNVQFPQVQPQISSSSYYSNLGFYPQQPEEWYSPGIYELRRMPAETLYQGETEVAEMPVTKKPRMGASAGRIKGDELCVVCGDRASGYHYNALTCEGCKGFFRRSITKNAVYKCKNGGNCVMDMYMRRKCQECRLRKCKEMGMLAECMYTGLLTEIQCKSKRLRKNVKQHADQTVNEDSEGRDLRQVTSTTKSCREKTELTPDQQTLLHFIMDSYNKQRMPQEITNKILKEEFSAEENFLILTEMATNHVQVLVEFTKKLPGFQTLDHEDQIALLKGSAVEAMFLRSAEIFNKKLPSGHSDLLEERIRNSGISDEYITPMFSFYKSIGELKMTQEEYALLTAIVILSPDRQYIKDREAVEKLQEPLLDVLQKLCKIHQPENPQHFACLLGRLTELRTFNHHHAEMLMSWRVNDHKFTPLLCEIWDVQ
Conditions: background statement

FXR activation (in words): activates FXR
Compound: CC(C)c1onc(-c2c(Cl)cccc2Cl)c1COc1ccc(/C=C/c2cccc(C(=O)O)c2)c(Cl)c1 [GW4064]
